One compound from PMC2874645 (Aquatic toxicology (Amsterdam, Netherlands), 2010) can be followed below.

Molecules are shown by their SMILES.

In the assay the target is T1, farnesoid X receptor alpha (Fxrα) (Oryzias latipes, UniProt H2M6M7).
T1 sequence (H2M6M7 201-485): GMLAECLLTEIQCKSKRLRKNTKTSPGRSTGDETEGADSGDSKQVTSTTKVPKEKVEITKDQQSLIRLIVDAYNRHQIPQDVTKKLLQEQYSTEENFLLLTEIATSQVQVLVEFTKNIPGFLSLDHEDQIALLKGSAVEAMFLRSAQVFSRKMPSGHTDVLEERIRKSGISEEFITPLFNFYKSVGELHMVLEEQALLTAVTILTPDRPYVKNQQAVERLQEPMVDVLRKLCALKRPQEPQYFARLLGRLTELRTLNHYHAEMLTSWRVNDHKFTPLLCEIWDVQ
T1 sequence (Q9UBK2 1-798 partner): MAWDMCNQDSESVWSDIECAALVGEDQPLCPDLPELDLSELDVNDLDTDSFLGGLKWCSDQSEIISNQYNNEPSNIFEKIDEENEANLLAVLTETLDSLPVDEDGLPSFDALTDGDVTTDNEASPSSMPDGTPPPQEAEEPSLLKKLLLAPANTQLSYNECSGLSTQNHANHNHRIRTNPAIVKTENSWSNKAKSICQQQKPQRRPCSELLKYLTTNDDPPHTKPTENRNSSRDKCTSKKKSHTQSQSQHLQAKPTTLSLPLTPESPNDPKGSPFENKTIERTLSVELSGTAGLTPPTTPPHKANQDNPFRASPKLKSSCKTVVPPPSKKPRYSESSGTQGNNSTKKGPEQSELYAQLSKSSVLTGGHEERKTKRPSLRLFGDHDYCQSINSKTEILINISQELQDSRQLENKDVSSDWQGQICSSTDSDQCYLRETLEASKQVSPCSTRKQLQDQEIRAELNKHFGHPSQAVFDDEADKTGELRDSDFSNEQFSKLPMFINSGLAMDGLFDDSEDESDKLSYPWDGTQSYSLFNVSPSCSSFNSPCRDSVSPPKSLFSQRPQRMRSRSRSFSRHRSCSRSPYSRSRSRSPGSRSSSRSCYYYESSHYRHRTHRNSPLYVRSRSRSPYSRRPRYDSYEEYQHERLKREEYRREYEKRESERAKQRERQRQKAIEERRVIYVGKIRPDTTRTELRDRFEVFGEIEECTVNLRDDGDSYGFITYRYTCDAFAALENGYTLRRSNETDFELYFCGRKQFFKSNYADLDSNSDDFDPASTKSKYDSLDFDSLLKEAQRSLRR
Briefly: Gal4-LBD luciferase reporter in PLHC-1 cells at […]. As to conditions: read-out: Gal4-LBD luciferase reporter in PLHC-1 cells at 100 μM. A general note: Reporter assays use an easily measured gene product as a stand-in for the process of interest.

With `C[C@H](CCC(=O)NCCS(=O)(=O)O)[C@H]1CC[C@H]2[C@@H]3[C@H](O)C[C@@H]4C[C@H](O)CC[C@]4(C)[C@H]3CC[C@]12C` [tauro-CDCA], the fold induction at 100 µM came to 3.15.
